# Apparent affinities of Ab-14 variants for a coronavirus HR2 peptide

All variants were tested on one target, the spike HR2 peptide PDVDLGDISGINAS (SARS-CoV-2).

Each scFv is VH, a 15-residue (Gly4Ser)3 linker, VL, as in the parent Ab-14, and differs from it in the CDRs of the light chain only.
VH: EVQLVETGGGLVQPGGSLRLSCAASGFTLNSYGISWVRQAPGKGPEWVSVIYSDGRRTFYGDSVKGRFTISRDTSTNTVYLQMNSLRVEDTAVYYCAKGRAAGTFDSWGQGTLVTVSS
VL: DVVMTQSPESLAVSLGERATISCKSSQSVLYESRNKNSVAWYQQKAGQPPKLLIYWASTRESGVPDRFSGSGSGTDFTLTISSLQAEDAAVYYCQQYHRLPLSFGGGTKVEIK

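These sequences belong to a second round, designed from the earlier measurements on random variants of the parent. Their group label is 14L_En_Gen (En: ensemble of fine-tuned language models; Gen: genetic algorithm). In AlphaSeq, yeast of one mating type display the scFv and yeast of the other type display the target. After mating in shaken culture at 30 °C for 16 h, diploids were selected and their barcode pairs sequenced. The ratio of observed to expected reads was calibrated, replicate by replicate, on BCL2-family standards whose Kd was known from biolayer interferometry. There are six technical replicates.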

The whole VL of each variant is written out.
Affinities are written as log10 Kd with Kd in nM; a lower number is a better binder.
An entry "n.d." has no value in the source: the pair was not observed among the diploids in that replicate. This suggests poor binding but is not conclusive.

| # | VL | replicates, log10 nM | control signals |
|---|---|---|---|
| 1 | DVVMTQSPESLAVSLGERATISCKVSEFMKGLMMRTDSIAWYQQKAGQPPKLLIYDNNTRNSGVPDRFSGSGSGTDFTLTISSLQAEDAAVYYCQQYDRLPLSFGGGTKVEIK | 1.04 0.86 1.06 1.61 1.02 2.08 | 1/18 (4.38) |
| 2 | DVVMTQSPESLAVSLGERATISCTISQMSTLFSQTINNVAWYQQKAGQPPKLLIYEVSTREQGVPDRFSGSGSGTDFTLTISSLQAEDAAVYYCQQYDRLPLVFGGGTKVEIK | 1.63 1.74 n.d. n.d. 1.84 2.16 | 1/18 (2.26) |
| 3 | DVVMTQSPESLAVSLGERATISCTIGGTLMYGMRNRSNVAWYQQKAGQPPKLLIYEVSERLNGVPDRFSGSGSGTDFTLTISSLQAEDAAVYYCQQYDRLPLAFGGGTKVEIK | n.d. n.d. n.d. n.d. 2.46 2.37 | 0/18 |
| 4 | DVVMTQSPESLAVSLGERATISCIVSQLMLWGMHVKNSIAWYQQKAGQPPKLLIYEAVTRINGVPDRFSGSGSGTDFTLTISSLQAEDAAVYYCQQYDRLPLFFGGGTKVEIK | n.d. n.d. n.d. n.d. n.d. n.d. | 0/18 |
| 5 | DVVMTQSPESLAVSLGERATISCMISQLYNFGTFAINSVAWYQQKAGQPPKLLIYQAETRENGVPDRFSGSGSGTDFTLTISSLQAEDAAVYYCQQYDRLPLTFGGGTKVEIK | 1.69 1.48 n.d. 2.55 1.93 2.27 | 1/18 (2.52) |
| 6 | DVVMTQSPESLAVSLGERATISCKISQMVRVGSTVSNSIAWYQQKAGQPPKLLIYEEVTRAKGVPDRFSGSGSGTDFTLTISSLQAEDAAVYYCQQYHRLPLQFGGGTKVEIK | 0.64 0.16 0.72 1.54 0.40 0.23 | 0/18 |
| 7 | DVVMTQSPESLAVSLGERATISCMVSQLMVWGMHARNSIAWYQQKAGQPPKLLIYEAQTRLNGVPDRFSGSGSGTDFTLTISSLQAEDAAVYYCQQYDRLPLFFGGGTKVEIK | n.d. n.d. n.d. 2.04 1.43 n.d. | 0/18 |
| 8 | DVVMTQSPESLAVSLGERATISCNISHFMDTTAKHNNNVAWYQQKAGQPPKLLIYEMEMREVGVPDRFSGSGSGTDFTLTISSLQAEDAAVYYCQQYHHLPLSFGGGTKVEIK | 1.87 1.09 1.41 1.27 1.83 1.89 | 1/18 (3.41) |
| 9 | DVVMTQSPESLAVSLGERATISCMMSSLMGYESRHINNVAWYQQKAGQPPKLLIYQTTTRESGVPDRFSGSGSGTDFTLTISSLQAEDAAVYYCQQYDRLPLVFGGGTKVEIK | 0.71 0.64 0.50 0.49 0.79 0.69 | 0/18 |
| 10 | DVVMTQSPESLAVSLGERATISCKIGFTLNMLEHKQNNVAWYQQKAGQPPKLLIYDLVTRENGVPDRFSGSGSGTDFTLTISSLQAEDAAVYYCQQYHRLPLSFGGGTKVEIK | 0.79 0.37 1.03 0.83 0.50 1.43 | 0/18 |
| 11 | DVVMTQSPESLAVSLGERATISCMVTQMAMSGMKNKRSVAWYQQKAGQPPKLLIYNAETREKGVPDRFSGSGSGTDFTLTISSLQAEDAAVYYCQQYHRLPLIFGGGTKVEIK | 1.28 1.16 1.75 1.94 1.21 1.93 | 0/18 |
| 12 | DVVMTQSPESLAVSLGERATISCKIGMTLNTLSHKQNNVAWYQQKAGQPPKLLIYDLVYRENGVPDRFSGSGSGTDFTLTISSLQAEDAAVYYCQQYFRLPLSFGGGTKVEIK | 0.25 0.33 0.33 0.50 0.32 0.37 | 0/18 |
| 13 | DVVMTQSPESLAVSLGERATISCKLSMTTEMEHVNRNSVAWYQQKAGQPPKLLIYELVTRMKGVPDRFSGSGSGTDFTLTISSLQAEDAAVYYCQQYNRLPLSFGGGTKVEIK | 0.53 0.49 0.03 0.09 0.27 0.44 | 0/18 |
| 14 | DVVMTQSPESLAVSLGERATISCTISQVLNTLAKTGNNVAWYQQKAGQPPKLLIYDLAEREDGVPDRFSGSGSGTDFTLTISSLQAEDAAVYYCQQYFRLPLSFGGGTKVEIK | 2.79 1.62 1.33 1.59 1.27 1.48 | 0/18 |

For reference, 2 entries of the list once more:

| VL | replicates, log10 nM | control signals |
|---|---|---|
| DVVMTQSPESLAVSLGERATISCNISHFMDTTAKHNNNVAWYQQKAGQPPKLLIYEMEMREVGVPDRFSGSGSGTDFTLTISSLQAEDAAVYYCQQYHHLPLSFGGGTKVEIK | 1.87 1.09 1.41 1.27 1.83 1.89 | 1/18 (3.41) |
| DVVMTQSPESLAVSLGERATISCKLSMTTEMEHVNRNSVAWYQQKAGQPPKLLIYELVTRMKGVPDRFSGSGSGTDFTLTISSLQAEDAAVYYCQQYNRLPLSFGGGTKVEIK | 0.53 0.49 0.03 0.09 0.27 0.44 | 0/18 |

Values of this round are not directly comparable with the first-round values of the same sequences.
The authors' rule: three or more of the six replicates give a measured affinity, fewer mean a poor binder.
Background: pairings of all light chain designs with three empty control strains gave a value in 4% of cases (median 2.64, 5th percentile 1.59). Values in that range, when seen in few replicates, are hard to tell from nonspecific mating. For each scFv, signals with the empty controls are counted beside the result, with their mean in brackets.

Values reported by Li et al. 2023, doi:10.1038/s41467-023-39022-2 (FLAb copy).